## Apparent affinities of Ab-14 variants for a coronavirus HR2 peptide

Antigen: PDVDLGDISGINAS, a 14-residue peptide of the SARS-CoV-2 spike HR2 region.

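The starting antibody came from a phage panning campaign against this peptide. This is the validation round: designs drawn from the data on random variants, tested in the same kind of assay. Group labels follow the data file (Ctrl: baseline library sampled from a position-specific scoring matrix, with some repeated check sequences; Rand: our label for a block that the file lists under HC and that is probably the random mutants of the ten best first-round binders; En: ensemble of fine-tuned language models; GP: Gaussian process model; HC: hill climbing; Gen: genetic algorithm; Gibbs: Gibbs sampling; a sequence that several methods proposed may carry one label only). AlphaSeq pools MATa yeast showing the antibodies with MATalpha yeast showing the peptide. Binding brings cells together so that they mate, and sequencing counts the barcode pairs among the diploids. The ratio of observed to expected reads was calibrated, replicate by replicate, on BCL2-family standards whose Kd was known from biolayer interferometry. Mating was done six times.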

Each scFv is VH, a (GGGGS)3 linker, VL, as in the parent Ab-14, and differs from it in the CDRs of the light chain only.
VH: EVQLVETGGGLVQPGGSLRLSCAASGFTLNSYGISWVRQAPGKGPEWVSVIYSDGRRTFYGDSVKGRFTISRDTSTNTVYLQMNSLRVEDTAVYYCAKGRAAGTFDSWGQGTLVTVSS
VL: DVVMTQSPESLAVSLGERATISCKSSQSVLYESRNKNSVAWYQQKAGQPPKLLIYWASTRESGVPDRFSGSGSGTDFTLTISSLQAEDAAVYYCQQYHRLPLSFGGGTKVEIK

Each variant is given by its three light chain CDRs, as the data file delimits them; those of the parent are KSSQSVLYESRNKNSVA, WASTRES, QQYHRLPLS.
Values are log10 of the apparent Kd in nM; lower means stronger binding.
Averages over replicates are reported, and they cover detected replicates only.
"nd" means that the variant was in the library but no mating with the target was seen in any replicate; the authors take this as a sign of poor binding, and no number exists.
The list is sorted by this average, lowest first, undetected variants last.
In the paper, a design with two or fewer of six values counts as a poor binder.
Of ten entries with the parent sequence, four were seen in most replicates (averages 0.34 to 2.37), three in one and three in none, so single entries are noisy.
Three control strains display no target. For all light chain designs, 4% of the pairings with them gave a signal, with a median of 2.64 and one signal in twenty below 1.59, so weak values seen in few replicates may be background. Also given: how often the same scFv was detected with the empty control strains.
Values of this round are not directly comparable with the first-round values of the same sequences.

| CDR-L1 | CDR-L2 | CDR-L3 | group | mean, log10 nM | replicates with signal | empty controls |
|---|---|---|---|---|---|---|
| KSQQSVLYESRNKNNVA | AASTRED | QQYHRLPLS | GP_HC | -0.58 | 6 of 6 | 0 of 18 |
| KSSQSWLYESRNKNSVA | GASQRES | QQYHRLPLS | GP_HC | -0.38 | 6 of 6 | 1 of 18 |
| KLQQMYEYESRNPNSVA | HASTREL | QQYHRLPLS | GP_Gibbs | -0.34 | 6 of 6 | 1 of 18 |
| KLEQSTLYESRNKNSVA | NASTRLS | QQYHRLPLS | GP_Gen | -0.33 | 6 of 6 | 1 of 18 |
| KLSQGWLYESRNKNSVA | GASTRED | QQYHRLPLS | GP_HC | -0.25 | 6 of 6 | 0 of 18 |
| KVSQSVAYESRTKNSVA | NASTRES | QQYHRLPLS | GP_HC | -0.18 | 6 of 6 | 0 of 18 |
| HMKDMPGQGPQTYSSIA | HAEIREP | QQYYRLPLM | En_Gibbs | -0.13 | 6 of 6 | 0 of 18 |
| HLSDSVLYESRNKNSVA | NASTRES | QQYHRLPLY | GP_HC | -0.13 | 6 of 6 | 2 of 18 |
| KSSISYLYESRNPNSVA | EASTRES | QQYHRLPLS | GP_HC | -0.09 | 6 of 6 | 0 of 18 |
| KLSQSVPYESRNKNSVA | DASQRES | QQYHRLPLS | GP_Gen | -0.08 | 6 of 6 | 2 of 18 |
| KSSISWLYESRNKNSVA | EASTRES | QQYHRLPLS | GP_HC | -0.02 | 6 of 6 | 0 of 18 |
| KVMQSMLYESRNKNSVA | HASMREQ | QQYHRLPLQ | GP_Gibbs | 0.00 | 6 of 6 | 0 of 18 |
| KFSQSNGYEQRNKNSVA | EASQREQ | QQYHRLPLS | GP_Gibbs | 0.03 | 6 of 6 | 1 of 18 |
| QLDWYNTYATASASNVA | DVAQRAN | QQYMRLPLM | En_Gibbs | 0.05 | 6 of 6 | 3 of 18 |
| KSSQSVLFESRNKNSVA | DYSTRES | QQYWRLPLS | Rand | 0.14 | 6 of 6 | 0 of 18 |
| KLYQSVLYESRNKNSVA | NASTRYS | QQYHRLPLS | GP_Gen | 0.15 | 6 of 6 | 0 of 18 |
| KLSQSELYESRNFNSVA | NASQRES | QQYHRLPLS | GP_Gen | 0.17 | 6 of 6 | 1 of 18 |
| KLSQSNLYEDRNLNNVA | NASQRES | QVYHRLPLM | GP_Gibbs | 0.18 | 6 of 6 | 0 of 18 |
| KLSQSVLYESRNKNSVA | NASTRVS | QQYHRLPLS | GP_Gen | 0.19 | 6 of 6 | 1 of 18 |
| KSSQSVLYESENKNSVA | NASTRMS | QQYHRLPLS | GP_HC | 0.21 | 6 of 6 | 2 of 18 |
| FLSQSMLYESRNKNSVA | NASTRES | QQYHRLPLS | GP_Gen | 0.23 | 6 of 6 | 0 of 18 |
| KLSQSNLYESRNKNSVA | NASYRES | QQYHRLPLS | GP_Gen | 0.36 | 6 of 6 | 1 of 18 |
| KLSIMYQHTSRNKNNIA | ERSTREE | QQYHHLPLS | En_HC | 0.37 | 6 of 6 | 1 of 18 |
| TFDTGYRFGALNTDSIA | HAEMRVA | QMYYRLPLT | En_Gibbs | 0.42 | 1 of 6 | 0 of 18 |
| KSSISYLYESRNKNSVA | AASYRES | QQYHRLPLS | GP_HC | 0.44 | 6 of 6 | 2 of 18 |
| KSSQEVKFESRNKNSVA | DASTRES | QQYHRLPLS | GP_HC | 0.46 | 6 of 6 | 0 of 18 |
| KSSQSVLYESRNKNSVA | DASTRES | QQYHRLPLF | Ctrl | 0.49 | 6 of 6 | 0 of 18 |
| KDSQSMLYSSRNKNSVA | DASARES | QQYHRLPLW | Ctrl | 0.52 | 6 of 6 | 0 of 18 |
| HISYSMQHLSKNKNSVA | NQQTRET | QQYHRLPLS | En_HC | 0.57 | 6 of 6 | 0 of 18 |
| TLTQVQGMESHNKDSVA | DLSTRGN | QQYHRLPLS | En_HC | 0.59 | 6 of 6 | 0 of 18 |
| KLSGIMRLESKKSNSIA | EMTTRGE | QQYDRLPLS | En_Gen | 0.60 | 6 of 6 | 2 of 18 |
| QIYQAMHTLMQMKDNVA | DVNERGD | QQYYRLPLS | En_Gen | 0.65 | 6 of 6 | 0 of 18 |
| VLPDNLLMFEMQYHSIA | EGVQRME | QQYERLPLT | En_Gibbs | 0.68 | 6 of 6 | 0 of 18 |
| ALSQSMDMTSRNVNSVA | DLTTRCN | QQYHRLPLS | En_HC | 0.70 | 5 of 6 | 0 of 18 |
| KSSQSWLYESRNKNSVA | GASAREV | QQYHRLPLS | GP_HC | 0.71 | 6 of 6 | 0 of 18 |
| KFHMGHEAGQRKHDNVA | EANLRPS | QQYNRLPII | En_Gibbs | 0.71 | 6 of 6 | 2 of 18 |
| MMSQMFEGLSTSKNPVA | QVSTREE | QQYHRLPLS | En_HC | 0.86 | 6 of 6 | 0 of 18 |
| TLTQVQGMEMHNKDNVA | DLSTRGN | QQYDRLPLS | En_HC | 0.92 | 6 of 6 | 3 of 18 |
| KLQMSVMMESRWCNSVA | SASTREE | QQYHRLPLS | GP_Gibbs | 0.96 | 6 of 6 | 2 of 18 |
| TLYGLSNSMSINKNNVA | EMSTREP | QQYDRLPLV | En_Gen | 1.02 | 6 of 6 | 0 of 18 |
| TISQMTSWMSNLKNNVA | EVSTREN | QQYDRLPLS | En_Gen | 1.05 | 6 of 6 | 1 of 18 |
| KSEDGVDDESRNDNSVA | NASTRLS | QQYHRLPLS | GP_Gibbs | 1.11 | 6 of 6 | 0 of 18 |
| MISQVMNTLTRNGNNVA | DLTEREK | QQYFRLPLT | En_Gen | 1.21 | 3 of 6 | 0 of 18 |
| KLSQLVNFFGHAINSVA | EMETREN | QQYDRLPLS | En_HC | 1.21 | 6 of 6 | 0 of 18 |
| KISMMYRFEQTASNNIA | EMTMRAE | QSYHRLPLS | En_HC | 1.22 | 6 of 6 | 0 of 18 |
| KSSQSVLYESRNKNSVA | WAWTRAS | QQYHRLPLA | Ctrl | 1.47 | 1 of 6 | 0 of 18 |
| KSSQSHLYESRNKNSVA | WASTRED | QQYHRLPLS | Ctrl | 1.50 | 6 of 6 | 1 of 18 |
| KIYQGINTHMGAHSSIA | QEETRLQ | QQYAHLPLS | En_Gen | 1.51 | 6 of 6 | 2 of 18 |
| MLSMVADYASVSKNSVA | EMATREN | QQYDRLPLS | En_Gen | 1.54 | 6 of 6 | 0 of 18 |
| KISQSALMEPRNKNSVA | NASTRQM | QQYHRLPLS | GP_Gibbs | 1.59 | 6 of 6 | 0 of 18 |
| KQSQSVGYEWRNKNSVA | DASTRES | QQYHRLPLS | GP_HC | 1.62 | 6 of 6 | 0 of 18 |
| KLSQSVSYESRNKNSVA | WASWRES | YQYHRLPLS | Ctrl | 1.95 | 6 of 6 | 1 of 18 |
| VLGGQWGLGTTNNSSIA | NDSETML | QQYWRLPFM | En_Gibbs | 2.07 | 5 of 6 | 3 of 18 |
| MISQLYNMGQFAINSVA | QASLRCN | QQYDRLPLE | En_Gen | 2.09 | 5 of 6 | 0 of 18 |
| ISPQSVLYESRNKNSVA | NASTRES | QQYHRLPES | Ctrl | 2.13 | 2 of 6 | 0 of 18 |
| KSSQSVLYNSRAKNSVA | WASTRES | QQYHRLPLS | Ctrl | 2.49 | 6 of 6 | 0 of 18 |
| KSSQSMLYEYRNKNSVA | WASTRES | QQYHRLPLS | Ctrl | nd | 0 of 6 | 0 of 18 |
| IVSQLMLWGMHHKNSIA | EAQTRLN | QQYERLPLF | En_Gen | nd | 0 of 6 | 0 of 18 |

Repeated from above, the 7 best binders with a signal in all replicates:

CDR-L1,CDR-L2,CDR-L3,group,"mean, log10 nM",replicates with signal,empty controls
KSQQSVLYESRNKNNVA,AASTRED,QQYHRLPLS,GP_HC,-0.58,6 of 6,0 of 18
KSSQSWLYESRNKNSVA,GASQRES,QQYHRLPLS,GP_HC,-0.38,6 of 6,1 of 18
KLQQMYEYESRNPNSVA,HASTREL,QQYHRLPLS,GP_Gibbs,-0.34,6 of 6,1 of 18
KLEQSTLYESRNKNSVA,NASTRLS,QQYHRLPLS,GP_Gen,-0.33,6 of 6,1 of 18
KLSQGWLYESRNKNSVA,GASTRED,QQYHRLPLS,GP_HC,-0.25,6 of 6,0 of 18
KVSQSVAYESRTKNSVA,NASTRES,QQYHRLPLS,GP_HC,-0.18,6 of 6,0 of 18
HMKDMPGQGPQTYSSIA,HAEIREP,QQYYRLPLM,En_Gibbs,-0.13,6 of 6,0 of 18

The measurements come from Li et al. 2023 (doi:10.1038/s41467-023-39022-2) through the FLAb antibody collection.